The record followed here is ChEMBL document CHEMBL6153173, “Discovery, Synthesis, and Activity Evaluation of Novel Small-Molecule Inhibitors Targeting VISTA for Cancer Immunotherapy” (J Med Chem, 2025).

The source made the active and inactive calls. No cut-off for these calls is given here.

The subject of experiment [1] is HepG2. Put plainly: Induction of autophagy-dependent degradation of VISTA in human HepG2 cells at 5 uM measured after 24 hrs by Western blot analysis relative to control. It counts as cell-based. Background: A western blot detects proteins with antibodies after separation by electrophoresis.
The subject of experiment [2] is CT26. Put plainly: Cytotoxicity against mouse CT-26 cells assessed as cell viability at 10 uM measured after 24 hrs by CCK-8 assay. It counts as functional, cell-based. Background: Tetrazolium dyes change colour on reduction, which living cells bring about.
The subject of experiment [3] is HepG2. Put plainly: Cytotoxicity against human HepG2 cells assessed as cell viability at 10 uM measured after 24 hrs by CCK-8 assay. The format is functional, cell-based.
The test system of experiment [4] is CT26. Put plainly: Cytotoxicity against mouse CT-26 cells assessed as cell viability at 20 uM measured after 24 hrs by CCK-8 assay. It counts as functional, cell-based.
Experiment [5] concerns HepG2. The experiment is described as follows: Cytotoxicity against human HepG2 cells assessed as cell viability at 20 uM measured after 24 hrs by CCK-8 assay. The format is functional, cell-based.
Experiment [6] addresses T1, V-type immunoglobulin domain-containing suppressor of T-cell activation (Homo sapiens) (UniProt Q9H7M9).
T1 sequence (whole entry): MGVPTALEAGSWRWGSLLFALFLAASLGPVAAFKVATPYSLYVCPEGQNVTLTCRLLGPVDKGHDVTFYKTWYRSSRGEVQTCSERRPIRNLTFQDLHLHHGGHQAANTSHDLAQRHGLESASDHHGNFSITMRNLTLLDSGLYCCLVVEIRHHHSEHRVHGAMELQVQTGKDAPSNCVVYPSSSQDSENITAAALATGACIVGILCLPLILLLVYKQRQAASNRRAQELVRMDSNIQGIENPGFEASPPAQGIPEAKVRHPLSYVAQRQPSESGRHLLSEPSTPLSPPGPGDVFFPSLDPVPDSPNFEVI
Put plainly: Inhibition of VISTA protein in human Jurkat cells assessed as rescue of VISTA Fc protein suppressed IL-2 release by measuring increase in IL-2 by ELISA based assay. The format is cell-based. The settings on record: dose 0.3125-5 µM. On the technique in general: In an ELISA, binding on a coated surface is turned into a signal by an enzyme label.

Experiment [7] has as its system HepG2. Put plainly: Induction of autophagy-dependent degradation of VISTA in human HepG2 cells measured after 24 hrs by Western blot analysis. The format is cell-based. To be noted: dose 1.25-5 µM.
The subject of experiment [8] is CT26. Put plainly: Antitumor activity against mouse CT26 cells allografted in BALB/c mouse assessed as tumor volume inhibition rate at 60 mg/kg, po once daily for 14 consecutive doses. The settings on record: time 14.0 day. It counts as functional, organism-based.
Experiment [9] relates to CT26. The experiment is described as follows: Antitumor activity against mouse CT26 cells allografted in BALB/c mouse assessed as inhibition of tumor growth by visual examination at 30 to 120 mg/kg, po once daily for 14 consecutive doses. The format is functional, organism-based. The settings on record: dose 30-120 mg/kg, time 14.0 day.
For the next experiment, the system named is Mus musculus. Put plainly: Induction of antitumor immune response in BALB/c mouse allografted with mouse CT-26 cells assessed as increase in infiltration of CD8 positive cells in tumor tissue at 30 to 120 mg/kg, po once daily for 14 consecutive doses by immunohistochemical analysis. It counts as functional, organism-based. To be noted: CT26, dose 30-120 mg/kg, time 14.0 day.

In experiment [10] the test system is CT26. Put plainly: Antitumor activity against mouse CT26 cells allografted in BALB/c mouse assessed as tumor shrinkage at 30 to 120 mg/kg, po once daily for 14 consecutive doses by hematoxylin and eosin (H and E) staining based assay. To be noted: dose 30-120 mg/kg, time 14.0 day. It counts as functional, organism-based.
The test system of experiment [11] is CT26. Put plainly: Antitumor activity against mouse CT26 cells allografted in BALB/c mouse assessed as growth delay at 30 to 120 mg/kg, po once daily for 14 consecutive doses by hematoxylin and eosin (H and E) staining based assay. The format is functional, organism-based. To be noted: dose 30-120 mg/kg, time 14.0 day.

In the experiment with HepG2 [1], `Cc1c(-c2ccccc2)ccc2nc(-c3cccc(CNCCO)c3)[nH]c12` registered an Activity of 50%.

Take `Cc1c(-c2ccc(F)cc2)ccc2nc(-c3cccc(CNCCN(C)C)c3)[nH]c12`: the outcome with CT26 [2], in the experiment with HepG2 [3], in the experiment with CT26 [4], with HepG2 [5], with CT26 [8] and in the experiment on CT26 [9] was Active. The outcome with Mus musculus, in the experiment with CT26 [10] and in the experiment on CT26 [11] was Active. Besides, the inhibition result in [6] was “Dose-dependent-effect”. In addition, the Activity entry in the experiment with HepG2 [7] was “Dose-dependent-effect”; in the experiment on HepG2 [1], 77%.
